This note sets out measurements from ChEMBL document CHEMBL1687729, “Intracellular activity of antibiotics in a model of human THP-1 macrophages infected by a Staphylococcus aureus small-colony variant strain isolated from a cystic fibrosis patient: pharmacodynamic evaluation and comparison with isogenic normal-phenotype and revertant strains” (Antimicrob Agents Chemother, 2009).

A value given as a limit tells only on which side of the number the result lay.

Test [1] relates to Staphylococcus aureus. The conditions noted are these: SCV, THP-1.
The test system of test [2] is Staphylococcus aureus.
Test [3] relates to Staphylococcus aureus. The conditions noted are these: SCV, THP-1. This is another data set of the same source.
For test [4], the system named is Staphylococcus aureus. As to conditions: SCV.
Test [5] concerns Staphylococcus aureus. The conditions noted are these: SCV. This is another data set of the same source.
Test [6] deals with Staphylococcus aureus. The conditions noted are these: SCV. This is another data set of the same source.

As a reminder, the MIC is the smallest concentration in the dilution series that meets the test's criterion for growth inhibition. The low end stands for inhibition by little substance, the high end for a need for much substance. For GENTAMICIN, the log10cfu was 0.63 in the test with Staphylococcus aureus [1], -0.58 in the test on Staphylococcus aureus [3] and 3 in the test with Staphylococcus aureus [5]. In the test with Staphylococcus aureus [2], this sequence returned an MIC of 0.5 mg/L. The log10CFU/ml was less than -4.5 in the test on Staphylococcus aureus [4] and 2.33 in the test on Staphylococcus aureus [6].
